Activity calls are given as the source filed them.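 Rule for the calls: active = toxicity graded low, moderate or high, meaning less radioactive sulfur built into protein than in solvent-only controls; inactive = the rest.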
Test system: HeLa, 35S-Met/Cys protein incorporation toxicity, 3 h
Test: 35S-Met/Cys incorporation reduction in HeLa – HeLa cells, cytotoxicity control for PMI inhibitor project, late-stage follow-up (AID 1620)

With `O=P(Nc1nccs1)(c1ccccc1)c1nc2ccccc2s1` (stereo unspecified) the outcome was “active; low toxicity”.

Reference: PubChem BioAssay AID1620 (Sanford-Burnham Center for Chemical Genomics, 2009)
